Consider three compounds from patent US6291677A, “Compounds having activity as inhibitors of cytochrome P450RAI” (Allergan Sales, Inc., priority 2000, dated 2001).

Amino acid sequences for entries named in this document (tags omitted). Residues count along the entry.
UniProt P10826, 1-448 isoform P10826-2: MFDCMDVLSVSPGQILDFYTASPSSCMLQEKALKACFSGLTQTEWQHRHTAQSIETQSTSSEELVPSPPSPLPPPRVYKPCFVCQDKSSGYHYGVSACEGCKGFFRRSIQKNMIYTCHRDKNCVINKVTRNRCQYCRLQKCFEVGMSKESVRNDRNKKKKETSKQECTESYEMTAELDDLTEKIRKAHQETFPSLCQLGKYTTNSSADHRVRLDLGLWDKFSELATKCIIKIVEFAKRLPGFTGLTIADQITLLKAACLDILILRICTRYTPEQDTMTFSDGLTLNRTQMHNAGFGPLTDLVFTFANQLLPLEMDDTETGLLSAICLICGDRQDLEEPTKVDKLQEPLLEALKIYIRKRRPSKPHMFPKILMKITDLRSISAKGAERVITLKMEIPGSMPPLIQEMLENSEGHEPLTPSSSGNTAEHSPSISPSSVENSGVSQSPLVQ

Read-outs that look alike come from different tables or passages of the source.

Assay [1] addresses RARβ (Homo sapiens, UniProt P10826). Nature of the assay: ligand binding assay, RARβ.
For assay [2], the target named is T1, P450RAI-1 (Homo sapiens, UniProt O43174).
T1 sequence (O43174 1-497): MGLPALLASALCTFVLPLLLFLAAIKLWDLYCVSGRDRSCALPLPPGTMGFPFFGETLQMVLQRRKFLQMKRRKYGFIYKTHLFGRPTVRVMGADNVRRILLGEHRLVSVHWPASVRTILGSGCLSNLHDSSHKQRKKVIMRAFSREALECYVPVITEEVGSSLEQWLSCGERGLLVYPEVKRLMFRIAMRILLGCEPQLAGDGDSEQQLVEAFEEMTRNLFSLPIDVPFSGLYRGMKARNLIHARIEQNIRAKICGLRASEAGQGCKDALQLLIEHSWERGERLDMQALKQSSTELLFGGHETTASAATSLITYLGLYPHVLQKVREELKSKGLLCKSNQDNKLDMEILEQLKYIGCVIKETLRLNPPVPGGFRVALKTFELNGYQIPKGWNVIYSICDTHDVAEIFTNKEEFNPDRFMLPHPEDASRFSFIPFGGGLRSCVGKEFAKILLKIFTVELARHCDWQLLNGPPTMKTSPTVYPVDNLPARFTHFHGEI
Nature of the assay: cell-based. The following applies: read-out: P450RAI INHIBITION DATA INTACT HELA IC50.

In the case of `CN(Cc1ccccc1)C1(c2ccc(C#Cc3ccc(C(=O)O)cc3)cc2)CC1` [Compound 116, 4-[4-(1-Benzylmethylamino-cyclopropyl)-phenylethynyl]-benzoic acid], in assay [1], binding was characterised by a dissociation constant (Kd) of 732 nM.

In the case of `Cc1cc(C#Cc2ccc(C(=O)O)cc2)ccc1Cn1ccnc1` [Compound 119, 4-(4-Imidazol-1-yl-methyl-3-methyl-phenylethynyl)-benzoic acid], the IC50 in assay [2] is 400 nM.

Regarding `CC(C)c1cc(C#Cc2ccc(CC(=O)O)cc2)ccc1Cn1ccnc1` [Compound 127, [4-(4-Imidazol-1-yl-methyl-3-isopropyl-phenylethynyl)-phenyl]-acetic acid], the 50% inhibitory concentration (IC50) in assay [2] (intact HeLa, P450RAI-1 stably transfected, [3H]-RA, 3 hours at 37° C) stood at 400 nM.
